According to published antibiotic growth screens (doi:10.1038/s41589-023-01349-8):
The other results are listed elsewhere or left out.

system: A. baumannii ATCC 17978; assay: relative growth (fraction of control); higher = less inhibition; conditions: 50 µM

Structure (SMILES)	relative growth
CO[C@H](CN(C)C(=O)c1ccccc1F)[C@@H](C)CN([C@H](C)CO)S(=O)(=O)c1ccc(Cl)cc1	0.997
COc1ccc(S(=O)(=O)N(C)C[C@H]2Oc3cc(C4=CCCC4)ccc3S(=O)(=O)N([C@H](C)CO)C[C@@H]2C)cc1	1.1
O=C(C[C@H]1C=C[C@@H](NS(=O)(=O)c2ccccc2)[C@@H](CO)O1)NCc1ccncn1	1.04
CN1C=C(C(=O)OCCS(C)(=O)=O)C(C(=O)OCCS(C)(=O)=O)=CC(c2ccc(CO)cc2)=C[C@@H]1C1CC1	1.01
C=CC[C@H](CC(=O)N(CCO)Cc1ccccc1)C(=O)N[C@H](COC(=O)[C@@H](CC=C)CC(=O)OC(C)(C)C)Cc1c[nH]c2ccccc12	1.11
O=C(NCCN1CCOCC1)c1ccccn1	1.02
C[C@H](CO)N1C[C@H](C)[C@H](CN(C)Cc2ccccc2F)Oc2cc(C#CCN(C)C)ccc2S1(=O)=O	0.877
O=C(NCCCN1CCOCC1)[C@H]1[C@@H]2C=C[C@@]3(CN(Cc4cccs4)C(=O)[C@@H]13)O2	1.18
COc1ccccc1-c1cnc2c(c1)C(=O)N([C@@H](C)CO)C[C@@H](C)[C@H](CN(C)C(=O)c1cccnc1)O2	1.07
O=c1oc2ccccc2c(O)c1Cc1c(O)c2ccccc2oc1=O	1.05
CO[C@@H](CN(C)S(=O)(=O)c1cccc(Cl)c1)[C@H](C)CN([C@@H](C)CO)S(=O)(=O)c1ccc(Cl)cc1	0.937
Cn1nc2c(c1N)CCC2	0.923
CO[C@@H]1CN(C)C(=O)c2ccc(NC(=O)Nc3ccc(Cl)cc3)cc2OC[C@H](C)N(C(=O)Nc2c(C)noc2C)C[C@@H]1C	0.812
CC(C)NC(=O)N(C)C[C@@H]1Oc2cc(C#Cc3ccc(F)cc3)ccc2S(=O)(=O)N([C@@H](C)CO)C[C@H]1C	0.823
CN1CCN(C(=O)C[C@H]2CC[C@@H]3[C@H](COC[C@@H](O)CN3S(=O)(=O)c3cccc(Cl)c3)O2)CC1	1.08
Cc1ccc(S(=O)(=O)N2CCO[C@@H]2CNC(=O)C(=O)NCc2ccccn2)cc1	1.07
CC(C)NC(=O)N[C@H]1C=C[C@@H](CC(=O)NCCN2CCCC2)O[C@H]1CO	0.853
O=C(CN1CCOCC1)N[C@H]1CC[C@H](CCNS(=O)(=O)c2ccccc2F)O[C@H]1CO	1.15
C=CCN(Cc1ccccc1)C(=O)[C@@H]1N(c2cccc(Cl)c2CO)C(=O)[C@H]2[C@H](C(=O)OCC)[C@@H]3C=C[C@]12O3	0.934
CN[C@@H]1[C@@H](O[C@H]2O[C@H](CO)[C@@H](N)[C@H](O)[C@H]2O)O[C@H]2C[C@@H](N)[C@H](O[C@H]3[C@H](O)[C@@H](O)[C@H](N)C[C@@H]3N)O[C@@H]2[C@@H]1O.O=S(=O)(O)O	0.92
OC1(c2ccc(Cl)c(C(F)(F)F)c2)CCN(CCCC(c2ccc(F)cc2)c2ccc(F)cc2)CC1	1.09
C[C@H]1CNC(=CC(=O)c2ccccc2)C(=O)N1	0.836
O=C(C[C@@H]1CC[C@H]2[C@@H](COC[C@H](O)CN2Cc2cc(F)ccc2F)O1)N[C@H]1CCN(Cc2ccccc2)C1	0.905
CC(CN(C)C)CN1c2ccccc2Sc2ccccc21.O=C(O)C(O)C(O)C(=O)O (centres undefined)	0.94
O=C(O)COC(=O)Cc1ccccc1Nc1c(Cl)cccc1Cl	1.03

Structure (SMILES)	relative growth
O=C(O)CSc1ncnc2nc[nH]c12	0.967
C[C@@H]1CN([C@H](C)CO)S(=O)(=O)c2ccc(-c3ccc(F)cc3)cc2O[C@@H]1CN(C)C(=O)C1CCOCC1	0.868
C=C1CC/C=C(/C)CC[C@@H]2[C@@H]1CC2(C)C.O [(-)E-CARYOPHYLLENE hydrate]	0.937
C[C@H]1CN([C@@H](C)CO)S(=O)(=O)c2ccc(-c3ccncc3)cc2O[C@H]1CN(C)Cc1ccc(Oc2ccccc2)cc1	1.34
Cc1ccc2c(N)[nH]nc2n1	0.974
N[C@@H](CC(=O)N1CCn2c(nnc2C(F)(F)F)C1)Cc1cc(F)c(F)cc1F.O.O=P(O)(O)O	1.19
Cl.O=C1CN2Cc3c(ccc(Cl)c3Cl)N=C2N1	0.934
O=C(Nc1ccc2c(c1)[C@@H]1C[C@H](CC(=O)N3CCc4ccccc4C3)O[C@H](CO)[C@@H]1O2)C1CCOCC1	1.03
COc1ccc(C#Cc2ccc3c(c2)[C@]2(C(=O)N3)[C@H](c3ccc(O)cc3)N3[C@H](c4ccccc4)[C@H](c4ccccc4)OC(=O)[C@H]3[C@@H]2C(=O)O)cc1	1.47
Cc1cnc(NC(=O)C2=C(O)c3ccccc3S(=O)(=O)N2C)s1	0.992
NC[C@H](c1ccncc1)c1ccc[nH]1	0.908
c1cc(-c2nn[nH]n2)ccc1OCc1nn[nH]n1	0.853
COc1cc(C)c2c(=O)c(-c3ccccc3)coc2c1	1.07
O=C(C[C@@H]1CC[C@H]2[C@@H](COC[C@H](O)CN2S(=O)(=O)c2ccc(Cl)cc2)O1)N[C@H]1CCN(Cc2ccccc2)C1	1.04
C[C@H](CO)N1C[C@H](C)[C@H](CN(C)Cc2ccncc2)Oc2cc(C#CCN(C)C)ccc2S1(=O)=O	0.994
NC1=NCCN1CC(=O)O	0.995
CC1(C)O[C@@H]2C[C@H]3[C@@H]4CCC5=CC(=O)C=C[C@]5(C)[C@@]4(F)[C@@H](O)C[C@]3(C)[C@]2(C(=O)CO)O1	0.974
O=C(C[C@@H]1C[C@@H]2c3cc(NS(=O)(=O)c4ccc(F)cc4)ccc3O[C@@H]2[C@H](CO)O1)NC1CCCC1	0.982
CC(C)[C@H](N)C(=O)OCCOCn1cnc2c(=O)[nH]c(N)nc21.Cl	1.32
CCc1cccc(C(C)C)c1NC(=O)Nc1ccccc1	1.09
COc1ccc([Si](C)(C)[C@H]2[C@H](CCn3cc([C@H](O)c4ccccc4)nn3)O[C@@]3(C(=O)N(Cc4cccc(N5CCC5=O)c4)c4ccccc43)[C@@H]2C)cc1	1.21
COc1ccc(C[C@@H](N)C(=O)N[C@@H]2[C@@H](O)[C@@H](n3cnc4c(N(C)C)ncnc43)O[C@@H]2CO)cc1	0.232
C=CCOC(=O)[C@H]1[C@@H]2C(=O)O[C@@H](c3ccccc3)[C@@H](c3ccccc3)N2[C@@H](c2ccc(OCCOC(=O)[C@H]3C[C@H]4C(=O)NCC(=O)N4[C@H]3c3ccc(O)cc3)cc2)[C@]12C(=O)Nc1ccc(I)cc12	1.25
COCCCNC(=O)[C@@]1(Sc2ccc(C)cc2)CC(=O)N(Cc2ccccc2C(F)(F)F)[C@@H]1c1ccc(CO)cc1I	1.06
Cc1nnc(NS(=O)(=O)c2ccc(N)cc2)s1	1.02

Structure (SMILES)	relative growth
COc1cccc(NC(=O)N2C[C@@H](O)COC[C@@H]3O[C@H](CC(=O)NC4Cc5ccccc5C4)CC[C@H]32)c1	1
C=CCSC[C@@H](N)C(=O)O	1.04
C[C@@H](NC(=O)C[C@H]1CC[C@H](NC(=O)CN2CCOCC2)[C@@H](CO)O1)c1ccccc1	1.04
NC(=S)CS(=O)(=O)c1ccccn1	1.02
C[C@]12C=CC(=O)C=C1CCC1C2[C@@H](O)C[C@@]2(C)C1CC[C@]2(O)C(=O)COP(=O)([O-])[O-].[Na+].[Na+] (some centres undefined)	0.994
CCCNC(=O)N1C[C@H](C)[C@H](OC)CN(C)C(=O)c2cc(NS(=O)(=O)CC(F)(F)F)ccc2OC[C@H]1C	1.02
COC(=O)C1=C2CC[C@@H](COC(=O)NCCCCCC(=O)NO)NC(=O)N[C@H](Cc3ccccc3)c3cn(nn3)C[C@H](Cc3ccccc3)NC(=O)c3oc(c(C(=O)OC)c3C(=O)OC)CC[C@@H](COC(=O)NCCCCCC(=O)NO)NC(=O)N[C@H](Cc3ccccc3)c3cn(nn3)C[C@H](Cc3ccccc3)NC(=O)C(=C1C(=O)OC)O2	0.992
CC1O[C@@H](Oc2c(-c3ccc(O)c(O)c3)oc3cc(O)cc(O)c3c2=O)[C@H](O)[C@H](O)[C@H]1O (some centres undefined)	0.891
COCC(=O)Nc1ccc2c(c1)C(=O)N(C)[C@@H]1CC[C@@H](CC(=O)NCc3ccccc3Cl)O[C@H]1CO2	0.943
O=S(=O)(N1CCOCC1)n1nnc2ccccc21	0.983
COCCOC(=O)N1C(=O)[C@@]2(c3cc(C#Cc4ccc(OC)cc4)ccc31)[C@H](c1ccc(O)cc1)N1[C@H](c3ccccc3)[C@H](c3ccccc3)OC(=O)[C@H]1[C@@H]2C(=O)N1CCCCCCC1	0.914
O=C1C2CC3CC1CC(O)(C3)C2	1.11
CCN1CCN(c2cc3c(cc2F)c(=O)c(C(=O)O)cn3C2CC2)CC1	0.147
Cl.Cl.N=C(N)N	0.931
C[C@@H]1CN([C@@H](C)CO)S(=O)(=O)c2ccc(-c3cccnc3)cc2O[C@@H]1CN(C)C(=O)NC1CCCC1	0.991
COc1cc(NS(C)(=O)=O)ccc1Nc1c2ccccc2nc2ccccc12	0.83
Cn1cnc(S(=O)(=O)N2C[C@H](O)COC[C@H]3O[C@@H](CC(=O)NCc4ccc(F)cc4)CC[C@@H]32)c1	1.1
COCCCN(C[C@]1(O)CC[C@H]2C3=CC=C4C[C@@H](O)CC[C@]4(C)[C@@H]3CC[C@@]21C)C(=O)O[C@H]1C[C@@H](C)CC[C@@H]1C(C)C	0.994
CCNC(=S)N1CCOCC1	0.961
O=C(CN1CCOCC1)NCC[C@H]1CC[C@@H](NC(=O)c2ccccc2F)[C@H](CO)O1	1.05
Oc1ccc(OCc2ccccc2)cc1	1.08
C[C@@H]1CN([C@@H](C)CO)S(=O)(=O)c2ccc(C#Cc3cccnc3)cc2O[C@@H]1CN(C)CC1CCOCC1	1.02
CCOC(=O)c1snc2c(=O)nc[nH]c12	0.953
CO[C@H]1CC(O[C@@H]2/C(C)=C/C[C@@H]3C[C@@H](C[C@]4(C=C[C@H](C)[C@@H](C5CCCCC5)O4)O3)OC(=O)[C@@H]3C=C(C)[C@@H](O)[C@H]4OC/C(=C\C=C\[C@@H]2C)[C@]43O)O[C@@H](C)C1O[C@H]1C[C@H](OC)[C@@H](O)[C@H](C)O1 (some centres undefined)	0.936
